Literature values, collected in US7371365B2, “Methods for detecting parenchymal plaques in vivo” (Mayo Foundation for Medical Education and Research, priority 2000, dated 2008).

System: BBB
Conditions: in vivo; cited from earlier work

Substance: albumin: protein thought to cross the BBB by passive diffusion; literature comparison
- PS value in rat cortex: 1.5e-07 mL/g/s
